Test results reported in patent publication US12171806B2, “Therapeutic regimens and methods for lowering blood glucose and/or body weight using GLP-1R and GCGR balanced agonists” (priority 2021, dated 2024).

Experiment: Phase 1 MAD study of ALT-801: adverse events (TEAEs), safety overview

CC[C@H](C)[C@H](NC(=O)[C@H](Cc1ccccc1)NC(=O)[C@H](CCC(=O)O)NC(=O)[C@@H]1CCCCNC(=O)CC[C@H](NC(=O)[C@H](CC(=O)O)NC(=O)[C@H](CC(C)C)NC(=O)[C@H](Cc2ccc(O)cc2)NC(=O)[C@H](CCCCN)NC(=O)[C@H](CO)NC(=O)[C@H](Cc2ccc(O)cc2)NC(=O)[C@H](CC(=O)O)NC(=O)[C@H](CO)NC(=O)[C@@H](NC(=O)[C@H](Cc2ccccc2)NC(=O)[C@@H](NC(=O)CNC(=O)[C@H](CCC(N)=O)NC(=O)C(C)(C)NC(=O)[C@@H](N)Cc2c[nH]cn2)[C@@H](C)O)[C@@H](C)O)C(=O)N[C@@H](CCCCNC(=O)[C@H]2O[C@@H](OCCCCCCCCCCCCCCCCCC(=O)O)[C@H](O)[C@@H](O)[C@@H]2O)C(=O)N[C@@H](C)C(=O)N[C@@H](C)C(=O)N1)C(=O)N[C@@H](CCC(N)=O)C(=O)N[C@@H](Cc1c[nH]c2ccccc12)C(=O)N[C@@H](CC(C)C)C(=O)N[C@@H](CC(C)C)C(=O)N[C@@H](CCC(N)=O)C(=O)N[C@H](C(N)=O)[C@@H](C)O [ALT-801, pemvidutide]
(55.6%): Any TEAE; Mild; % (M2 1.8 mg (N = 9))
(11.1%): TEAE Abdominal discomfort; Mild; % (M2 1.8 mg (N = 9)) | TEAE Abdominal pain; Mild; % (M2 1.8 mg (N = 9)) | TEAE Anaemia; Mild; % (M2 1.8 mg (N = 9)) | TEAE Application site erythema; Mild; % (M2 1.8 mg (N = 9)) | TEAE Blood and lymphatic system disorders; Mild; % (M2 1.8 mg (N = 9)) | TEAE Constipation; Mild; % (M2 1.8 mg (N = 9)) | TEAE Constipation; Moderate; % (M2 1.8 mg (N = 9))
(0.0%): TEAE Vascular disorders, maximum severity Moderate, subjects % (M1 1.2 mg ALT-801 (N = 7)) | TEAE Vascular disorders, maximum severity PLT, subjects % (M1 1.2 mg ALT-801 (N = 7)) | TEAE Vascular disorders, maximum severity Severe, subjects % (M1 1.2 mg ALT-801 (N = 7)) | Any TEAE; PLT; % (M2 1.8 mg (N = 9)) | Any TEAE; Severe; % (M2 1.8 mg (N = 9)) | TEAE Abdominal discomfort; Moderate; % (M2 1.8 mg (N = 9)) | TEAE Abdominal discomfort; PLT; % (M2 1.8 mg (N = 9)) | TEAE Abdominal discomfort; Severe; % (M2 1.8 mg (N = 9)) | TEAE Abdominal distension; Mild; % (M2 1.8 mg (N = 9)) | TEAE Abdominal distension; Moderate; % (M2 1.8 mg (N = 9)) | TEAE Abdominal distension; PLT; % (M2 1.8 mg (N = 9)) | TEAE Abdominal distension; Severe; % (M2 1.8 mg (N = 9)) | TEAE Abdominal pain; Moderate; % (M2 1.8 mg (N = 9)) | TEAE Abdominal pain; PLT; % (M2 1.8 mg (N = 9)) | TEAE Abdominal pain; Severe; % (M2 1.8 mg (N = 9)) | TEAE Anaemia; Moderate; % (M2 1.8 mg (N = 9)) | TEAE Anaemia; PLT; % (M2 1.8 mg (N = 9)) | TEAE Anaemia; Severe; % (M2 1.8 mg (N = 9)) | TEAE Application site bruise; Mild; % (M2 1.8 mg (N = 9)) | TEAE Application site bruise; Moderate; % (M2 1.8 mg (N = 9)) | TEAE Application site bruise; PLT; % (M2 1.8 mg (N = 9)) | TEAE Application site bruise; Severe; % (M2 1.8 mg (N = 9)) | TEAE Application site erythema; Moderate; % (M2 1.8 mg (N = 9)) | TEAE Application site erythema; PLT; % (M2 1.8 mg (N = 9)) | TEAE Application site erythema; Severe; % (M2 1.8 mg (N = 9)) | TEAE Blood and lymphatic system disorders; Moderate; % (M2 1.8 mg (N = 9)) | TEAE Blood and lymphatic system disorders; PLT; % (M2 1.8 mg (N = 9)) | TEAE Blood and lymphatic system disorders; Severe; % (M2 1.8 mg (N = 9)) | TEAE Cardiac disorders; Mild; % (M2 1.8 mg (N = 9)) | TEAE Cardiac disorders; Moderate; % (M2 1.8 mg (N = 9)) | TEAE Cardiac disorders; PLT; % (M2 1.8 mg (N = 9)) | TEAE Cardiac disorders; Severe; % (M2 1.8 mg (N = 9)) | TEAE Constipation; Potentially PLT; % (M2 1.8 mg (N = 9)) | TEAE Constipation; Severe; % (M2 1.8 mg (N = 9)) | TEAE Diarrhoea; Mild; % (M2 1.8 mg (N = 9))
(44.4%): Any TEAE; Moderate; % (M2 1.8 mg (N = 9))
4: Any TEAE; Moderate; n (M2 1.8 mg (N = 9))
0: TEAE Vascular disorders, maximum severity Mild, subjects n (M1 1.2 mg ALT-801 (N = 7)) | TEAE Vascular disorders, maximum severity Moderate, subjects n (M1 1.2 mg ALT-801 (N = 7)) | TEAE Vascular disorders, maximum severity PLT, subjects n (M1 1.2 mg ALT-801 (N = 7)) | TEAE Vascular disorders, maximum severity Severe, subjects n (M1 1.2 mg ALT-801 (N = 7)) | Any TEAE; PLT; n (M2 1.8 mg (N = 9)) | Any TEAE; Severe; n (M2 1.8 mg (N = 9)) | TEAE Abdominal discomfort; Moderate; n (M2 1.8 mg (N = 9)) | TEAE Abdominal discomfort; PLT; n (M2 1.8 mg (N = 9)) | TEAE Abdominal discomfort; Severe; n (M2 1.8 mg (N = 9)) | TEAE Abdominal distension; Mild; n (M2 1.8 mg (N = 9)) | TEAE Abdominal distension; Moderate; n (M2 1.8 mg (N = 9)) | TEAE Abdominal distension; PLT; n (M2 1.8 mg (N = 9)) | TEAE Abdominal distension; Severe; n (M2 1.8 mg (N = 9)) | TEAE Abdominal pain; Moderate; n (M2 1.8 mg (N = 9)) | TEAE Abdominal pain; PLT; n (M2 1.8 mg (N = 9)) | TEAE Abdominal pain; Severe; n (M2 1.8 mg (N = 9)) | TEAE Anaemia; Moderate; n (M2 1.8 mg (N = 9)) | TEAE Anaemia; PLT; n (M2 1.8 mg (N = 9)) | TEAE Anaemia; Severe; n (M2 1.8 mg (N = 9)) | TEAE Application site bruise; Mild; n (M2 1.8 mg (N = 9)) | TEAE Application site bruise; Moderate; n (M2 1.8 mg (N = 9)) | TEAE Application site bruise; PLT; n (M2 1.8 mg (N = 9)) | TEAE Application site bruise; Severe; n (M2 1.8 mg (N = 9)) | TEAE Application site erythema; Moderate; n (M2 1.8 mg (N = 9)) | TEAE Application site erythema; PLT; n (M2 1.8 mg (N = 9)) | TEAE Application site erythema; Severe; n (M2 1.8 mg (N = 9)) | TEAE Blood and lymphatic system disorders; Moderate; n (M2 1.8 mg (N = 9)) | TEAE Blood and lymphatic system disorders; PLT; n (M2 1.8 mg (N = 9)) | TEAE Blood and lymphatic system disorders; Severe; n (M2 1.8 mg (N = 9)) | TEAE Cardiac disorders; Mild; n (M2 1.8 mg (N = 9)) | TEAE Cardiac disorders; Moderate; n (M2 1.8 mg (N = 9)) | TEAE Cardiac disorders; PLT; n (M2 1.8 mg (N = 9)) | TEAE Cardiac disorders; Severe; n (M2 1.8 mg (N = 9)) | TEAE Constipation; Potentially PLT; n (M2 1.8 mg (N = 9)) | TEAE Constipation; Severe; n (M2 1.8 mg (N = 9)) | TEAE Diarrhoea; Mild; n (M2 1.8 mg (N = 9))
1: TEAE Abdominal discomfort; Mild; n (M2 1.8 mg (N = 9)) | TEAE Abdominal pain; Mild; n (M2 1.8 mg (N = 9)) | TEAE Anaemia; Mild; n (M2 1.8 mg (N = 9)) | TEAE Application site erythema; Mild; n (M2 1.8 mg (N = 9)) | TEAE Blood and lymphatic system disorders; Mild; n (M2 1.8 mg (N = 9)) | TEAE Constipation; Mild; n (M2 1.8 mg (N = 9)) | TEAE Constipation; Moderate; n (M2 1.8 mg (N = 9))
5: Any TEAE; Mild; n (M2 1.8 mg (N = 9))
